Test results taken from publication PMC10020421 (2023).

Sequences of proteins named here, by UniProt entry; tags and fusion partners are left off.
UniProt P08908, whole entry: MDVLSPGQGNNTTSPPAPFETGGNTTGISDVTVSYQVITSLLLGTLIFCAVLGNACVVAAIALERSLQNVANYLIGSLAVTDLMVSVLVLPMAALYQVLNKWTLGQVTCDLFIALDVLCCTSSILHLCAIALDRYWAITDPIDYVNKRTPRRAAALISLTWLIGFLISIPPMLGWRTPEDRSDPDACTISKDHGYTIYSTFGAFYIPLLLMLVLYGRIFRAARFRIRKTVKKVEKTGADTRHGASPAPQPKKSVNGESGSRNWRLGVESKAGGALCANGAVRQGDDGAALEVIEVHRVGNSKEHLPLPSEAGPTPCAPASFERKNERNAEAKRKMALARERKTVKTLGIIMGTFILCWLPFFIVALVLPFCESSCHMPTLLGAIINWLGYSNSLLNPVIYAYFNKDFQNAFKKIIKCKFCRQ

Target: myc-h5HT1a (Homo sapiens, UniProt P08908)
Experiment: CAMYEL BRET cAMP signalling assay, HEK cells expressing 5HT1a alone
Format: cell-based
Conditions: 5HT1a cell line, drug alone

In the case of `CCCN(CCC)C1CCc2cccc(O)c2C1` (stereo not shown) [8OH-DPAT, 8-hydroxy DPAT], the “Emax (% inhib of Fsk), ± SEM” value is reported as 71.5 ± 3.6 % inhib of Fsk.
